# Results taken from patent US20210177795A1 (priority 2017, published 2021).
# Test: Body weight change of mice after URT (intranasal, 10 μl) treatment
# Conditions: Study 1B: dose range 0.005 nmoles-5 nmoles, then Udorn challenge
substance,measurement,value
PEG-[Arg]4-Ser-Ser-Pam2Cys,weight loss relative to baseline,no significant weight loss
